Measured values from ChEMBL document CHEMBL1124280, “Synthesis and biological evaluation of isomeric dinucleoside monophosphates and monomethylphosphonates of 9-beta-D-arabinofuranosyladenine and related analogues” (1988).

system: Vero; assay: Minimum cytotoxic concentration in vero cells of African green monkey kidney; settings: Chlorocebus sabaeus

Row | Compound | MCC [µg/mL]
1 | CP(=O)(OC[C@H]1OC(n2cnc3c(N)ncnc32)[C@@H](O)[C@@H]1O)OC[C@H]1OC(n2cnc3c(N)ncnc32)[C@@H](O)[C@@H]1O (stereo partly drawn) | > 400
2 | CP(=O)(OC[C@H]1OC(n2cnc3c(N)ncnc32)[C@@H](O)[C@@H]1O)O[C@H]1[C@H](O)C(n2cnc3c(N)ncnc32)O[C@@H]1O (stereo partly drawn) | > 100
3 | CP(=O)(O[C@@H]1C(O)O[C@H](n2cnc3c(N)ncnc32)[C@H]1O)O[C@H]1C(O)O[C@@H](n2cnc3c(N)ncnc32)[C@@H]1O (stereo partly drawn) | > 400
